In patent US6844009B1, “Media in the form of complex dispersions, method for preparing same and uses” (Capsulis, priority 1999, dated 2005):

System: total anti-HSA antibodies in the serum of the mice
Assay: ELISA of total anti-HSA antibodies in serum of mice injected subcutaneously with HSA preparations
Format: in vivo, mice (female BALB/c)
Conditions: subcutaneous injection at t=0 and t=10 days, 20 μg HSA per 100 μl, serum at t=23 days, titer = serum dilution factor with mean OD 490 nm above positivity threshold
Protocol: The model chosen is human serum albumin (HSA) injected subcutaneously in mice. The immune response is measured by the ELISA test, which quantitatively determines the total anti-HSA antibodies in the serum of the mice.
The preparations are injected subcutaneously into groups of 4 female BALB/c mice at the rate of one injection at t=0 and then one injection at t=10 days. A control group is not injected, one group receives the aqueous dispersion and the other group receives the complex dispersion. The mice are sacrificed at t=23 days, the blood is withdrawn into heparinized tubes and the serum is isolated by centrifuging.
Quantitative determination of the total immunoglobulins is carried out by the ELISA test on these sera according to a conventional protocol using rabbit immunoglobulins against mouse immunoglobulins labeled with peroxidase. […] For each serum, the reaction is carried out with respect to a series of dilutions from 1/25 to 1/(25×2^11).
The measurement is carried out by recording the optical density (OD) at 490 nm as a function of the dilution of the serum. […]
The results are expressed as mean titer, defined as the dilution factor for the serum for which the mean OD for the four mice of the group is greater than the positivity threshold.

HSA in PBS: human serum albumin (HSA) antigen in PBS buffer, not encapsulated
Mean titre of total IgGs: 0
